Test results: patent publication US20260166170A1, “ANTIBODY DRUG CONJUGATE COMPRISING NMT INHIBITOR AND ITS USE” (MyricX Pharma Limited, priority 2022, published 2026)

Assays:
[1] = test system: gastric cancer organoid GA2434B; experiment: Gastric cancer organoid CTG viability assay; assay type: cell-based; set-up: AUC (area under curve): unit not given beside the values; details: 5 or 6 days; for IC50: absolute IC50
Description: (§1) • Day−1: Patient derived gastric cancer organoids (PDXOs) are sheared to uniform sizes and the required number of organoids are combined 1:1 with 50% Matrigel to produce the right size of the organoids to perform the screen. • Day 0: Organoid seeding • 1. Collect organoids from each well by adding 20 μl 100× Dispase solution to each well from a 6-well plate, which contains 2 ml of organoid medium. • 2. Put the plates back in the incubator, 37° C. for 30 min. • 3. Collect organoids from all wells and pipet through a pre-wet 100 μm filter into a 50 ml plastic tube. • 4. Once all wells have been filtered over 100 μm filters, filter the flow though over a pre-wet 20 μm filter. • 5. Invert the 20 μm filter and recover the organoids in a new 50 ml tube. • 6. Collect and resuspend the organoids in the corresponding culture media. Count the organoids to get the concentration. • 7. Adjust cell concentration with culture medium to the proper concentration. • 8. Add Matrigel to a final concentration of 5% v/v and keep the organoids suspension on ice. • 9. Add 40 μL cell suspensions to 384-well plate by Multidrop dispenser with corresponding culture medium at the below seeding density:
(§2) • 10. Place screening plates back into the incubator before adding compounds and day 0 reading. Two duplicate plates were set up. One is for day 0 reading (TO) and the other for reading at the end point. • Day 0: Compounds treatment and Day 0 baseline CTG (cell titre glo) reading • 11. Add test articles according to the drug dilution scheme and plate map by Tecan D300e • 12. Place screening plates back into the incubator. • 13. For day 0 reading plate, add 40 μL of CTG 3D per well and read luminescent signal on Envision plate reader. • Day 6: Endpoint CTG reading. • 1. Read assay plates for luminescent CTG signal at the end of the assays: add 40 μL of CTG 3D per well by Multidrop dispenser, mix the contents for 5 min on the plate shaker, and incubate the plates for 30 min at room temperature in dark. Read luminescent signal on Envision plate reader.
(§3) In order to calculate absolute IC50, a concentration-response curve was fitted using nonlinear regression model with a sigmoidal dose response with variable slope. The formula for calculating surviving rate is shown below and the absolute IC50 were calculated according to the dose-response curve generated by GraphPad Prism.

[2] = test system: gastric cancer organoid GA6815B; experiment: Gastric cancer organoid CTG viability assay; assay type: cell-based; set-up: AUC (area under curve): unit not given beside the values; details: 5 or 6 days; for IC50: absolute IC50
Description: as §1, §2, §3

[3] = test system: gastric cancer organoid GA3055B; experiment: Gastric cancer organoid CTG viability assay; assay type: cell-based; set-up: AUC (area under curve): unit not given beside the values; details: 5 or 6 days; for IC50: absolute IC50
Description: as §1, §2, §3

[4] = test system: gastric cancer organoid GA0429B; experiment: Gastric cancer organoid CTG viability assay; assay type: cell-based; set-up: AUC (area under curve): unit not given beside the values; details: 5 or 6 days; for IC50: absolute IC50
Description: as §1, §2, §3

[5] = test system: gastric cancer organoid GA6833B; experiment: Gastric cancer organoid CTG viability assay; assay type: cell-based; set-up: AUC (area under curve): unit not given beside the values; details: 5 or 6 days; for IC50: absolute IC50
Description: as §1, §2, §3

[6] = test system: gastric cancer organoid GA6891B; experiment: Gastric cancer organoid CTG viability assay; assay type: cell-based; set-up: AUC (area under curve): unit not given beside the values; details: 5 or 6 days; for IC50: absolute IC50
Description: as §1, §2, §3

[7] = test system: gastric cancer organoid GA2109B; experiment: Gastric cancer organoid CTG viability assay; assay type: cell-based; set-up: AUC (area under curve): unit not given beside the values; details: 5 or 6 days; for IC50: absolute IC50
Description: as §1, §2, §3

[8] = test system: gastric cancer organoid GA0098B; experiment: Gastric cancer organoid CTG viability assay; assay type: cell-based; set-up: AUC (area under curve): unit not given beside the values; details: 5 or 6 days; for IC50: absolute IC50
Description: as §1, §2, §3

[9] = test system: gastric cancer organoid GA6894B; experiment: Gastric cancer organoid CTG viability assay; assay type: cell-based; set-up: AUC (area under curve): unit not given beside the values; details: 5 or 6 days; for IC50: absolute IC50
Description: as §1, §2, §3

[10] = test system: NCI-N87 human gastric xenograft; experiment: Gastric cancer xenograft model; assay type: in vivo, female BALB/c nude mice; details: for tumour volumes compared to vehicle alone: all concentrations tested (2.5 mg/kg or 5 mg/kg; Isotype control 5 mg/Kg); for animals with significant body weight loss (>10%): regained by next measurement
Description: In this study, 143 mice were inoculated subcutaneously in the right flank region with 1×10^7 viable NCI-N87 tumour cells resuspended in 0.1 mL of PBS mixed with Matrigel (1:1) for tumour development. 102 mice were assigned to 9 treatment groups on study day 0 when tumour volumes averaged 168.08 mm^3. […] The study was terminated on study Day 28.
Tumour volumes in mice were measured three times per week and tumour volume was calculated using the formula 0.5 (L×W2). The mean tumour volumes (+SEM) for each study group at each measurement are shown in FIG. 5 and FIG. 6. • ΔTGI %=((mean(C)−mean(C0))−(mean(T)−mean(T0)))/(mean(C)−mean(C0))×100% where T is the mean tumour volume of the treated group on the measurement day and TO is the mean tumour volume on Study Day 0. C is the mean tumour volume of the control Group 1 mice on the measurement day and C0 is the mean tumour volume on Study Day 0.
During the study, body weights were measured three times weekly for all animals. Animals were given Diet Gel for the entire duration on the study. The mean body weights for each group during the dosing phase are presented in FIG. 7A (2.5 mpk study) and FIG. 7B (5 mpk study).

Substance: trastuzumab deruxtecan
- AUC (area under curve) [1]: 374.6871
- Max_Inhibition (%) [1]: 21.96%
- IC50 [1]: > 50 nM
- AUC (area under curve) [2]: 246.891
- Max_Inhibition (%) [2]: 63.4%
- IC50 [2]: 0.4 nM
- AUC (area under curve) [3]: 365.9383
- Max_Inhibition (%) [3]: 32.59%
- IC50 [3]: > 50 nM
- AUC (area under curve) [4]: 340.3922
- Max_Inhibition (%) [4]: 41.08%
- IC50 [4]: > 50 nM
- AUC (area under curve) [5]: 347.9672
- Max_Inhibition (%) [5]: 30.23%
- IC50 [5]: > 50 nM
- AUC (area under curve) [6]: 442.4096
- Max_Inhibition (%) [6]: −4.87%
- IC50 [6]: > 50 nM
- AUC (area under curve) [7]: 376.8581
- Max_Inhibition (%) [7]: 18.41%
- IC50 [7]: > 50 nM
- AUC (area under curve) [8]: 399.6
- Max_Inhibition (%) [8]: 8.49%
- IC50 [8]: > 50 nM
- AUC (area under curve) [9]: 320.9681
- Max_Inhibition (%) [9]: 44.79%
- IC50 [9]: > 50 nM
- tumour volumes compared to vehicle alone [10]: significant decrease

Substance: trastuzumab: humanized anti-HER2 monoclonal antibody
- AUC (area under curve) [1]: 368.0264
- Max_Inhibition (%) [1]: 27.95%
- IC50 [1]: > 50 nM
- AUC (area under curve) [2]: 284.7039
- Max_Inhibition (%) [2]: 64.47%
- IC50 [2]: 1.9 nM
- AUC (area under curve) [3]: 343.8818
- Max_Inhibition (%) [3]: 43.3%
- IC50 [3]: > 50 nM
- Max_Inhibition (%) [4]: 7.66%
- IC50 [4]: > 50 nM
- AUC (area under curve) [5]: 311.5796
- Max_Inhibition (%) [5]: 32.44%
- IC50 [5]: > 50 nM
- AUC (area under curve) [6]: 440.8762
- Max_Inhibition (%) [6]: −1.19%
- IC50 [6]: > 50 nM
- AUC (area under curve) [7]: 365.1782
- Max_Inhibition (%) [7]: 34.63%
- IC50 [7]: > 50 nM
- AUC (area under curve) [8]: 389.5
- Max_Inhibition (%) [8]: 15.3%
- IC50 [8]: > 50 nM
- AUC (area under curve) [9]: 338.0717
- Max_Inhibition (%) [9]: 28.1%
- IC50 [9]: > 50 nM
- TGI study day 28 ([10]; 2.5 mg/Kg IV QW × 2 weeks): 123.08%
- animals with significant body weight loss (>10%) ([10]; 2.5 mg/Kg): one animal
- TGI study day 28 ([10]; 5 mg/Kg IV QW × 2 weeks): 167.70%
- animals with significant body weight loss (>10%) ([10]; 5 mg/Kg): one animal
- tumour volumes compared to vehicle alone [10]: significant decrease
